Patent US20140100156A1 (SANOFI, priority 2012, published 2014)

Protein sequences, listed by entry. Tags and fused reporters are not part of them. Residues count along the entry.
UniProt P43220, 24-463: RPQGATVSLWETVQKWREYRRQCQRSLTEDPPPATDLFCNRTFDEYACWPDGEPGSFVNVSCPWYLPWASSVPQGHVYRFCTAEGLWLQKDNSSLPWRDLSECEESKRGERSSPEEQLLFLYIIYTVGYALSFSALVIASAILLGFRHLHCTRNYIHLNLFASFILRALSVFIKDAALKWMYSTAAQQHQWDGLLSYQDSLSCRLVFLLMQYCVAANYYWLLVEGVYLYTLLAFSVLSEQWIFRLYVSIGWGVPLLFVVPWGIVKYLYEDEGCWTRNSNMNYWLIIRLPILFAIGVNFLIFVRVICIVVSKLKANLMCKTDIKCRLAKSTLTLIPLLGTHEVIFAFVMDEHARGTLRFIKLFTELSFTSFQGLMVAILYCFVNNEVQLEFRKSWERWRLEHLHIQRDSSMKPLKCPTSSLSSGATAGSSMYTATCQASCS
UniProt P47871, 26-477: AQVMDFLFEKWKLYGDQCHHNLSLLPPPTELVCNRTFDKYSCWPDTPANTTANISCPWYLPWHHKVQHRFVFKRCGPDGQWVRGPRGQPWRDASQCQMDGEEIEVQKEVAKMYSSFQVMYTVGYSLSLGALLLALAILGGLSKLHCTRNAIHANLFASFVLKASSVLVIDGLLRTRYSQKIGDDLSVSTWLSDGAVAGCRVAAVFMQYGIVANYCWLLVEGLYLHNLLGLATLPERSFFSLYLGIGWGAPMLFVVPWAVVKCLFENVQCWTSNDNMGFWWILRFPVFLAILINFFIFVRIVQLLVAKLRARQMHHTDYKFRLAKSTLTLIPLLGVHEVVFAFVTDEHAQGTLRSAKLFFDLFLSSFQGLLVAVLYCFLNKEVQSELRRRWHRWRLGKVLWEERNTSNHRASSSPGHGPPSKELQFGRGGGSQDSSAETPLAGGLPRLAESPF

Tests used:
[1] = in vivo; design: species or system mice; conditions: mouse, sc, 1 mg/kg
Procedure: Mice were dosed 1 mg/kg subcutaneously (s.c.). The mice were sacrificed and blood samples were collected after 0.25, 1, 2, 4, 8, 16 and 24 hours post application. Plasma samples were analysed after protein precipitation via liquid chromatography mass spectrometry (LC/MS). PK parameters and half-life were calculated using WinonLin Version 5.2.1 (non-compartment model).
Pharmacokinetic profiles were determined as described in Methods.

[2] = biological target: T1, human GLP-1 receptor (Homo sapiens, UniProt P43220); test: cAMP response (HTRF) of HEK-293 cells stably expressing human GLP-1 receptor; type: cell-based; conditions: Table 5; cAMP, HEK-293; read-out: EC50 hGLP-1R
T1 construct: expressed in transfected cells; host or cells: HEK-293

[3] = biological target: T2, human glucagon receptor (Homo sapiens, UniProt P47871); test: cAMP response (HTRF) of HEK-293 cells stably expressing human glucagon receptor; type: cell-based; conditions: Table 5; cAMP, HEK-293; read-out: EC50 hGlucagon-R
T2 construct: expressed in transfected cells; host or cells: HEK-293

[4] = physchem; type: physicochemical
Procedure: Prior to the testing of solubility and stability of a peptide batch, its content was determined. Therefore, two parameters were investigated, its purity (HPLC-UV) and the amount of salt load of the batch (ion chromatography). Since synthesized peptides contain primarily trifluoroacetate anions, only anion chromatography was performed.
. Therefore, solutions from solid samples were prepared in different buffer systems with a concentration of 1.0 mg/mL compound based on the previously determined content. HPLC-UV was performed after 2 h of gentle agitation from the supernatant, which was obtained by 20 min of centrifugation at 4000 rpm.
This analysis also served as starting point (t0) for the stability testing.
Instrument: Agilent 1100, column: X-Bridge C18 3.5 μm 2.1×150 mm (Waters), eluent: A: H20+500 ppm TFA/B: Methanol, flow: 0.55 mL/min, gradient: 0-5 min: 10-60% B; 5-15 min: 60-99% B; detection: 214 nm.

| Compound | Cmax [1] [ng/mL] | half-life [1] [h] | EC50 [2] [pM] | EC50 [3] [pM] | solubility at 2 h ([4]; pH 4.5) [µg/mL] | solubility at 2 h ([4]; pH 7.4) [µg/mL] |
| --- | --- | --- | --- | --- | --- | --- |
| CCCCCCCCCCCCCCCC(=O)NCCCC[C@H](NC(=O)[C@H](CCC(N)=O)NC(=O)[C@H](CCCCN)NC(=O)[C@H](CO)NC(=O)[C@H](CC(C)C)NC(=O)[C@H](CC(=O)O)NC(=O)[C@H](CO)NC(=O)[C@@H](NC(=O)[C@H](Cc1ccccc1)NC(=O)[C@@H](NC(=O)CNC(=O)[C@H](CCC(N)=O)NC(=O)C(C)(C)NC(=O)[C@@H](N)Cc1c[nH]cn1)[C@@H](C)O)[C@@H](C)O)C(=O)N[C@@H](CCC(=O)O)C(=O)N[C@@H](CO)C(=O)N[C@@H](CCCNC(=N)N)C(=O)N[C@@H](CCCNC(=N)N)C(=O)N[C@@H](C)C(=O)N[C@@H](CCC(N)=O)C(=O)N[C@@H](CC(=O)O)C(=O)N[C@@H](Cc1ccccc1)C(=O)N[C@H](C(=O)N[C@@H](CCC(=O)O)C(=O)N[C@@H](Cc1c[nH]c2ccccc12)C(=O)N[C@@H](CC(C)C)C(=O)N[C@@H](CCCCN)C(=O)N[C@@H](C)C(=O)NCC(=O)NCC(=O)N1CCC[C@H]1C(=O)N[C@@H](CO)C(=O)N[C@@H](CO)C(=O)NCC(=O)N[C@@H](C)C(=O)N1CCC[C@H]1C(=O)N1CCC[C@H]1C(=O)N1CCC[C@H]1C(=O)N[C@@H](CO)C(N)=O)[C@@H](C)CC [compound 5] | 3180 | 1.7 | 11 | 109 |  |  |
| CCCCCCCCCCCCCCCCCC(=O)N[C@@H](CCC(=O)NCCCC[C@H](NC(=O)[C@H](CCC(N)=O)NC(=O)[C@H](CCCCN)NC(=O)[C@H](CO)NC(=O)[C@H](CC(C)C)NC(=O)[C@H](CC(=O)O)NC(=O)[C@H](CO)NC(=O)[C@@H](NC(=O)[C@H](Cc1ccccc1)NC(=O)[C@@H](NC(=O)CNC(=O)[C@H](CCC(N)=O)NC(=O)[C@@H](CO)NC(=O)[C@@H](N)Cc1c[nH]cn1)[C@@H](C)O)[C@@H](C)O)C(=O)N[C@@H](CC(=O)O)C(=O)N[C@@H](CO)C(=O)N[C@@H](CCCNC(=N)N)C(=O)N[C@@H](CCCNC(=N)N)C(=O)N[C@@H](C)C(=O)N[C@@H](CCC(N)=O)C(=O)N[C@@H](CC(=O)O)C(=O)N[C@@H](Cc1ccccc1)C(=O)N[C@H](C(=O)N[C@@H](CCC(=O)O)C(=O)N[C@@H](Cc1c[nH]c2ccccc12)C(=O)N[C@@H](CC(C)C)C(=O)N[C@@H](CCCCN)C(=O)N[C@@H](CC(N)=O)C(=O)NCC(=O)NCC(=O)N1CCC[C@H]1C(=O)N[C@@H](CO)C(=O)N[C@@H](CO)C(=O)NCC(=O)N[C@@H](C)C(=O)N1CCC[C@H]1C(=O)N1CCC[C@H]1C(=O)N1CCC[C@H]1C(=O)N[C@@H](CO)C(N)=O)[C@@H](C)CC)C(=O)O [compound 8] | 2680 | 3.3 | 6.3 | 2.3 |  |  |
| CCCCCCCCCCCCCCCC(=O)N[C@@H](CCC(=O)NCCCC[C@H](NC(=O)[C@H](CCC(N)=O)NC(=O)[C@H](CCCCN)NC(=O)[C@H](CO)NC(=O)[C@H](CC(C)C)NC(=O)[C@H](CC(=O)O)NC(=O)[C@H](CO)NC(=O)[C@@H](NC(=O)[C@H](Cc1ccccc1)NC(=O)[C@@H](NC(=O)CNC(=O)[C@H](CCC(N)=O)NC(=O)[C@@H](CO)NC(=O)[C@@H](N)Cc1c[nH]cn1)[C@@H](C)O)[C@@H](C)O)C(=O)N[C@@H](CCC(=O)O)C(=O)N[C@@H](CO)C(=O)N[C@@H](CCCNC(=N)N)C(=O)N[C@@H](CCCNC(=N)N)C(=O)N[C@@H](C)C(=O)N[C@@H](CCC(N)=O)C(=O)N[C@@H](CC(=O)O)C(=O)N[C@@H](Cc1ccccc1)C(=O)N[C@H](C(=O)N[C@@H](CCC(=O)O)C(=O)N[C@@H](Cc1c[nH]c2ccccc12)C(=O)N[C@@H](CC(C)C)C(=O)N[C@@H](CCCCN)C(=O)N[C@@H](CCC(=O)O)C(=O)NCC(=O)NCC(=O)N1CCC[C@H]1C(=O)N[C@@H](CO)C(=O)N[C@@H](CO)C(=O)NCC(=O)N[C@@H](CCCNC(=N)N)C(=O)N1CCC[C@H]1C(=O)N1CCC[C@H]1C(=O)N1CCC[C@H]1C(=O)N[C@@H](CO)C(N)=O)[C@@H](C)CC)C(=O)O [compound 82] |  |  | 11.7 | 4.7 | > 1000 | > 1000 |
| CCCCCCCCCCCCCCCC(=O)N[C@@H](CCC(=O)NCCCC[C@H](NC(=O)[C@H](CCC(N)=O)NC(=O)[C@H](CCCCN)NC(=O)[C@H](CO)NC(=O)[C@H](CC(C)C)NC(=O)[C@H](CC(=O)O)NC(=O)[C@H](CO)NC(=O)[C@@H](NC(=O)[C@H](Cc1ccccc1)NC(=O)[C@@H](NC(=O)CNC(=O)[C@H](CCC(N)=O)NC(=O)[C@@H](CO)NC(=O)[C@@H](N)Cc1c[nH]cn1)[C@@H](C)O)[C@@H](C)O)C(=O)N[C@@H](CCC(=O)O)C(=O)N[C@@H](CO)C(=O)N[C@@H](CCCNC(=N)N)C(=O)N[C@@H](CCCNC(=N)N)C(=O)N[C@@H](C)C(=O)N[C@@H](CCC(N)=O)C(=O)N[C@@H](CC(=O)O)C(=O)N[C@@H](Cc1ccccc1)C(=O)N[C@H](C(=O)N[C@@H](CCC(=O)O)C(=O)N[C@@H](Cc1c[nH]c2ccccc12)C(=O)N[C@@H](CC(C)C)C(=O)N[C@@H](CCCCN)C(=O)N[C@@H](CCCCN)C(=O)NCC(=O)NCC(=O)N1CCC[C@H]1C(=O)N[C@@H](CO)C(=O)N[C@@H](CO)C(=O)NCC(=O)N[C@@H](C)C(=O)N1CCC[C@H]1C(=O)N1CCC[C@H]1C(=O)N1CCC[C@H]1C(=O)N[C@@H](CO)C(N)=O)[C@@H](C)CC)C(=O)O [compound 85] |  |  | 8.1 | 10.4 | > 1000 | > 969 |
| CCCCCCCCCCCCCCCC(=O)N[C@@H](CCC(=O)NCCCC[C@H](NC(=O)[C@H](CCC(N)=O)NC(=O)[C@H](CCCCN)NC(=O)[C@H](CO)NC(=O)[C@H](CC(C)C)NC(=O)[C@H](CC(=O)O)NC(=O)[C@H](CO)NC(=O)[C@@H](NC(=O)[C@H](Cc1ccccc1)NC(=O)[C@@H](NC(=O)CNC(=O)[C@H](CCC(N)=O)NC(=O)[C@@H](CO)NC(=O)[C@@H](N)Cc1c[nH]cn1)[C@@H](C)O)[C@@H](C)O)C(=O)N[C@@H](CCC(=O)O)C(=O)N[C@@H](CO)C(=O)N[C@@H](CCCNC(=N)N)C(=O)N[C@@H](C)C(=O)N[C@@H](C)C(=O)NC(C)(C)C(=O)N[C@@H](CC(C)C)C(=O)N[C@@H](Cc1ccccc1)C(=O)N[C@H](C(=O)N[C@@H](CCC(=O)O)C(=O)N[C@@H](Cc1c[nH]c2ccccc12)C(=O)N[C@@H](CC(C)C)C(=O)N[C@@H](CCCCN)C(=O)N[C@@H](CC(N)=O)C(=O)NCC(=O)NCC(=O)N1CCC[C@H]1C(=O)N[C@@H](CO)C(=O)N[C@@H](CO)C(=O)NCC(=O)N[C@@H](C)C(=O)N1CCC[C@H]1C(=O)N1CCC[C@H]1C(=O)N1CCC[C@H]1C(=O)N[C@@H](CO)C(N)=O)[C@@H](C)CC)C(=O)O [compound 121] |  |  | 6.1 | 23.7 | > 1000 | > 980 |
